# Earlier results as cited in patent US11535824B2, “Nuclear transfer” (Sung Kwang Medical Foundation, priority 2015, dated 2022).
# pIC50: −log10 of the molar value.
# Target: T1, G9a (KMT1C) (Homo sapiens, UniProt Q96KQ7)
# T1 sequence (Q96KQ7 1-1210): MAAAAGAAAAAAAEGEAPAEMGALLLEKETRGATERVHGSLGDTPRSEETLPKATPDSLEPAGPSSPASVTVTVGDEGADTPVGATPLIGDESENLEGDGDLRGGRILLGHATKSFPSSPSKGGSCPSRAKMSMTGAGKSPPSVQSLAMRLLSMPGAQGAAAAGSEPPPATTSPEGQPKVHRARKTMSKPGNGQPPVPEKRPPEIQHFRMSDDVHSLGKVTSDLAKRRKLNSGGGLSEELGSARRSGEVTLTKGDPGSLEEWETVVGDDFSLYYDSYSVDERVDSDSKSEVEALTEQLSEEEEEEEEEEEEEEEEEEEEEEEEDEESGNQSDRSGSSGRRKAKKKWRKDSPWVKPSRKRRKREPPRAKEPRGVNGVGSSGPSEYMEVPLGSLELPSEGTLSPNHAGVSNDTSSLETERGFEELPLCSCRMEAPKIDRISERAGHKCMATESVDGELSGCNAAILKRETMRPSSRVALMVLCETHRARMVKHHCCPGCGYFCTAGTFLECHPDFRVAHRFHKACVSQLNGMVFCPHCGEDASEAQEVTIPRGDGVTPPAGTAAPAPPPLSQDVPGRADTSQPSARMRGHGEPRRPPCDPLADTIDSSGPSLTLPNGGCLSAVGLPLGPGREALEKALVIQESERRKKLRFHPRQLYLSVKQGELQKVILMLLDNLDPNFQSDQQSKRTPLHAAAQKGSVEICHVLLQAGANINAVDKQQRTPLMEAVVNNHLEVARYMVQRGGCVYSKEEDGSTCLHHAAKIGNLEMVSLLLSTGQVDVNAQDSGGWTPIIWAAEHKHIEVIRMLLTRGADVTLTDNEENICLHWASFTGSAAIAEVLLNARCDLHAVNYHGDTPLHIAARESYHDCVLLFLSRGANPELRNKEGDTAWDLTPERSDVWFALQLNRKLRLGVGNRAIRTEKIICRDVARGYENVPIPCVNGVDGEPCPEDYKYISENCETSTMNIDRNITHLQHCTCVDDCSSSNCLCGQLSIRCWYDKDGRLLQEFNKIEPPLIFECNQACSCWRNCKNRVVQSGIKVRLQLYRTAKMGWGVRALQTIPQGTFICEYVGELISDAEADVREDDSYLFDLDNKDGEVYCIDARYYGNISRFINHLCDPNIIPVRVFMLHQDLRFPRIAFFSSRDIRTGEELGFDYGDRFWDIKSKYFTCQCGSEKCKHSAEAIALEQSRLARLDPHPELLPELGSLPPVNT
# Conditions: unit inferred; cited from earlier work
smiles,measurement,value
COc1cc2c(NC3CCN(C)CC3)nc(N3CCCN(C)CC3)nc2cc1OCCCN(C)C [UNC0224],pIC50,7.82
